Test results taken from PubChem BioAssay AID588342 (National Center for Advancing Translational Sciences (NCATS), 2011).
Screen size: about 360,000 compounds; about 25,000 (6.9%) were called active. Only results without a clear call are listed here; the source files them as inconclusive. The call rests on the fitted dose curve; in most records, active means well fitted inhibition curve with a large enough effect; inconclusive means small, poorly fitted or top-dose-only effect; inactive means flat fitted curve, though single readings scatter.

By UniProt entry, the sequences of proteins in these tests, tags left out.
UniProt P08659, whole entry, looked up: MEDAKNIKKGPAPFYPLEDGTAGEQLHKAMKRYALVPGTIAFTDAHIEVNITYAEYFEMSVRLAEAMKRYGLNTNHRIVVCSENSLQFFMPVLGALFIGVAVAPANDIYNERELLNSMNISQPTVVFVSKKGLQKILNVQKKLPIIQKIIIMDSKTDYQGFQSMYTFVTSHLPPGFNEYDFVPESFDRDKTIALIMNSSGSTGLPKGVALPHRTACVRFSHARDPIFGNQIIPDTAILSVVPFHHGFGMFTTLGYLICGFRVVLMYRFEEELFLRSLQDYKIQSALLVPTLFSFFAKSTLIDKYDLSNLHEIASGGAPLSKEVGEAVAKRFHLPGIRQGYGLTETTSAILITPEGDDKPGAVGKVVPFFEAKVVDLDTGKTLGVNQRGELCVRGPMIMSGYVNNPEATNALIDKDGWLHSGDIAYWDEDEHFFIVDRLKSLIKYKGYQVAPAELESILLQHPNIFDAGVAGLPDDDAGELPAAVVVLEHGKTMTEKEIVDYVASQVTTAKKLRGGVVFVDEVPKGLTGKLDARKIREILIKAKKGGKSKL

target: Luciferin 4-monooxygenase (Photinus pyralis) (UniProt P08659); assay: qHTS profiling assay for firefly luciferase inhibitor/activator using purifed enzyme and Km concentrations of substrates (counterscreen for miR-21 project); conditions: purified FLuc, luminescence inhibition; further: nearly all actives have a fitted effect of over 55% in size
Potency means the concentration at half of the fitted maximal effect.

| SMILES | Potency |
| --- | --- |
| Cc1ccc2nc3c(c(C)c2c1)CC(C(Cl)Cl)S3 (stereo unspecified) | inconclusive: 16.9 µM |
| Cc1c2c(nc3ccccc13)SC(C(Cl)Cl)C2 (stereo unspecified) | inconclusive: 19 µM |
| CCOC(=O)c1ccc(NC(=O)C(C)(CCl)SC)cc1 (stereo unspecified) | inconclusive: 16.9 µM |
| O=P(Nc1nccs1)(c1ccccc1)c1nc2ccccc2s1 (stereo unspecified) | inconclusive: 10.7 µM |
| CS(=O)(=O)c1cc([N+](=O)[O-])c2no[n+]([O-])c2c1 | inconclusive: 15.1 µM |
| O=c1c2cc([N+](=O)[O-])ccc2[nH]c2c([N+](=O)[O-])cc([N+](=O)[O-])cc12 | inconclusive: 21.3 µM |
| O=P1(Nc2nc3ccc(Cl)cc3s2)COc2ccccc2O1 (stereo unspecified) | inconclusive: 37.9 µM |
| CCOc1ccc(C2=NCC(CBr)S2)cc1 (stereo unspecified) | inconclusive: 37.9 µM |
| CC(=O)Nc1ccc(Oc2c([N+](=O)[O-])cc([N+](=O)[O-])cc2[N+](=O)[O-])cc1 | inconclusive: 9.53 µM |
| CC1CCN(C(=O)Oc2c(Cl)cc(Cl)c3cccnc23)CC1 | inconclusive: 26.9 µM |
| CC(C)=N/N=C(\N)N[N+](=O)[O-] | inconclusive: 0.0085 µM |
